By UniProt entry, the sequences of proteins in these tests, tags left out.
UniProt P47746, whole entry: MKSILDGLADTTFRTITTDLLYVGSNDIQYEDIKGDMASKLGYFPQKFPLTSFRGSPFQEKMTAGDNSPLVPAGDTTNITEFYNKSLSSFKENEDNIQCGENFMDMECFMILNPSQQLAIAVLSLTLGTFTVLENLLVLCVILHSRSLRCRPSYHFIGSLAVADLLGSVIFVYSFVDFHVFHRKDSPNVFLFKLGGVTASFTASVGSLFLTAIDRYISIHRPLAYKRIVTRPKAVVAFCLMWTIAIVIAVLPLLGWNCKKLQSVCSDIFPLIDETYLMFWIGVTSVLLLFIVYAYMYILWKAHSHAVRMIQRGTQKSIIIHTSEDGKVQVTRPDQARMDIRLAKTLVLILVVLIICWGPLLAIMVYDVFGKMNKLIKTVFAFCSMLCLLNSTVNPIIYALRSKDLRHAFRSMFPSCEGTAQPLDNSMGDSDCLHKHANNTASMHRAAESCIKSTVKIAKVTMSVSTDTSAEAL

According to US20260098268A1, “COMPOSITIONS AND METHODS TO TREAT ALZHEIMER'S DISEASE AND OTHER BRAIN DISEASES” (priority 2022, published 2026):

Target: CB1R (Mus musculus, UniProt P47746)
Conditions: WIN 5 μM

## Cc1c(C(=O)c2cccc3ccccc23)c2cccc3c2n1[C@H](CN1CCOCC1)CO3 [WIN, WIN55,212-2]
WT mice, hippocampal CA1 pyramidal neurons
  suppression of IPSCs: about 40%
nKO (neuron-specific MAGL knockout) mice
  WIN-induced suppression of IPSCs compared with WT: significantly reduced
tKO (total MAGL knockout) mice
  WIN-induced suppression of IPSCs compared with WT: significantly reduced

Read-outs that look alike come from different tables or passages of the source.
